These results are taken from patent US20240226106A1, “INHIBITORS OF PLASMA KALLIKREIN” (SHIRE HUMAN GENETIC THERAPIES, INC., priority 2021, published 2024).

Amino acid sequences for entries named in this document (tags omitted). Residues count along the entry.
UniProt P03952, 391-638 limits assumed: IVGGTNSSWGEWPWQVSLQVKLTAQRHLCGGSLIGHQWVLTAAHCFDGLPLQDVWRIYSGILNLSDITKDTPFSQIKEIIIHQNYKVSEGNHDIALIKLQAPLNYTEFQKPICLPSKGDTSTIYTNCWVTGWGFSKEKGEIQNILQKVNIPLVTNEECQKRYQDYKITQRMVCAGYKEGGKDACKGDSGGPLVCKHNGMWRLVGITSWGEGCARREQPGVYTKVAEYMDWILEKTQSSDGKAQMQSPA
UniProt P03952, 20-390 partner limits assumed: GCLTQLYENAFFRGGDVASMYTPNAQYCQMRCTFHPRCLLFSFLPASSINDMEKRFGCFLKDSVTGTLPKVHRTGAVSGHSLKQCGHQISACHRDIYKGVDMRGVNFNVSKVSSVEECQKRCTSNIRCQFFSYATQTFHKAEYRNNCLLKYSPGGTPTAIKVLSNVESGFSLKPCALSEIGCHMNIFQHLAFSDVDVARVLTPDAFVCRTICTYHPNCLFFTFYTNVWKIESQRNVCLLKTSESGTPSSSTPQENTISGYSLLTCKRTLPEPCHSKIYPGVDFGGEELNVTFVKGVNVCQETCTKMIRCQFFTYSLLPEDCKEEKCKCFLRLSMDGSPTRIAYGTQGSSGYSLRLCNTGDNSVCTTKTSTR

Assay [1] addresses human activated kallikrein enzyme (Homo sapiens, UniProt P03952). Briefly: Inhibition of human activated plasma kallikrein, fluorogenic peptide substrate (PFR-AMC), 500 pM enzyme format. The conditions noted are these: read-out: Primary Dose Response Assay: Average EC50, 500 pM activated kallikrein, 30 min preincubation, 10 min reaction, room temperature.
For the next assay, the target named is plasma kallikrein (Homo sapiens, UniProt P03952). Briefly: Neat human plasma assay (fluorogenic peptide), contact pathway-activated plasma. The following applies: read-out: Human Plasma Assay: IC90; citrated human plasma, 10 nM human FXIIa activation, 100 μM PFR-AMC, room temperature.

A value given as a limit tells only on which side of the number the result lay.

One may read the EC50 as the midpoint of the concentration-response curve. The term IC90 denotes the concentration at which the effect reaches the 90% level. Take `Cc1ccnc(C2CC2C(=O)Nc2cc(NCc3cn4cc(C5CC5)nc(N5CC(=O)N(C)C5=O)c4n3)ncn2)n1` (single isomer, unassigned) [81]: the EC50 in assay [1] is less than 2.5 nM. In addition, the IC90 at plasma kallikrein is less than 500 nM. For the compound `Cc1ccnc(C2CC2C(=O)Nc2cc(NCc3cn4cc(C5CC5)nc(N5CC(=O)N(C)C5=O)c4n3)ncn2)n1` (single isomer, unassigned) [82], the EC50 in assay [1] was in the range of 25 to 500 nM.
